We go through six compounds from ChEMBL document CHEMBL3797166, “Identification of N-phenyl-2-(N-phenylphenylsulfonamido)acetamides as new RORγ inverse agonists: Virtual screening, structure-based optimization, and biological evaluation” (Eur J Med Chem, 2016).

By UniProt entry, the sequences of proteins in these tests, tags left out. Where a name states a change or a piece, a line headed by the entry shows the natural chain unless it says otherwise.
UniProt P51449: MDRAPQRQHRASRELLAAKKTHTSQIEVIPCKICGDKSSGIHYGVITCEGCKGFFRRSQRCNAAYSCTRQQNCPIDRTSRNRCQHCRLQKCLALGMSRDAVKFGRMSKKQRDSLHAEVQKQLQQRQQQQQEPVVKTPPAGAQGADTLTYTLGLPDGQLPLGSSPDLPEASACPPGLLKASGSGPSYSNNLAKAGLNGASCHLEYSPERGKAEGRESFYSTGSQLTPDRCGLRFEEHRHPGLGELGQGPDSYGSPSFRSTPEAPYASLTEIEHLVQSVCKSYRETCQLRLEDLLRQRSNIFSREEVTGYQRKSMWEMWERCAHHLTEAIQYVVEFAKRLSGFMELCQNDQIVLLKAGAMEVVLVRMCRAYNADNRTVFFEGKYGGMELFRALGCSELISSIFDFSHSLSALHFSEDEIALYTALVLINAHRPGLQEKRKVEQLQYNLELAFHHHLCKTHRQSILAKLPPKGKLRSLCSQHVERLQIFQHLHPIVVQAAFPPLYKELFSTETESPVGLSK

Activity calls are given as the source filed them. The calls are words filed in the database; no cut-off is given here.

This experiment has as its target Nuclear receptor ROR-gamma (Homo sapiens, UniProt P51449).
One may read the ΔTm as the change in melting temperature against a reference sample. For `Cc1ccc(S(=O)(=O)N(CC(=O)Nc2ccc(OCc3ccccc3)cc2)c2cccc(C(F)(F)F)c2)cc1`, the thermal shift (ΔTm) is 0.25 °C.

As for `COC(=O)c1ccc(CNC(=O)CN(c2cccc(C(F)(F)F)c2)S(=O)(=O)c2ccc(C)cc2)cc1`, the deltaTm result is “inactive”.

Turning to `CCCCCCNC(=O)CN(c1cccc(C(F)(F)F)c1)S(=O)(=O)c1ccc(C)cc1`, the deltaTm result is “inactive”.

As to `Cc1ccc(S(=O)(=O)N(CC(=O)Nc2cccc(C(=O)O)c2)c2cccc(C(F)(F)F)c2)cc1`, the deltaTm entry was “inactive”.

As to `COC(=O)c1cccc(NC(=O)CN(c2cccc(C(F)(F)F)c2)S(=O)(=O)c2ccc(C)cc2)c1`, the deltaTm result is “inactive”.

As to `Cc1ccc(S(=O)(=O)N(CC(=O)Nc2ccc(OC(F)(F)F)cc2)c2cccc(C(F)(F)F)c2)cc1`, the shift in melting temperature (ΔTm) stood at 0.9 °C.
